This note sets out measurements from patent US7268224B2, “Human glucocorticoid receptor 1A promoter and splice variants” (Board of Supervisors of Louisianna State University and …, priority 2000, dated 2007).

The subject of the experiment is IRF-1 and IRF-2 protein levels in Jurkat cells. Nature of the experiment: IRF protein levels in interferon-treated Jurkat cells. The format is cell-based, human. Particulars: data not shown. The source says: The sequence of the 1A promoter and exon and identification of the transcription factors that bind to it will lead to new treatments. By identifying transcription factor binding sites in the 1A promoter and exon, we will determine whether activation of any of these factors will directly activate the hGR 1A promoter. For example, if the interferon regulatory factor element (IRF-E) that we have discovered is functional in activating the hGR 1A promoter, it may be possible to combine interferon therapy with corticosteroids to improve the lymphoblast kill rate by super-inducing GR expression. […] See H. Harada et al., “Structurally Similar but Functionally Distinct Factors, IRF-1 and IRF-2, Bind to the Same Regulatory Elements of IFN and IFN-Inducible Genes,” Cell, vol. 58, pp. 729-739 (1989). Thus, treatment of CEM-C7 cells (or of human patients) with an interferon may increase intracellular IRF-1, which could then stimulate the transcription of exon 1A G transcripts in the lymphoblast cells. This would make these cells more sensitive to the killing effects of glucocorticoids, thus resulting in an improved therapy and patient response.

B1: interferon-β: interferon used to treat Jurkat cells (protein, UniProt P01574 22-187, looked up)
Interferon beta: MSYNLLGFLQRSSNFQCQKLLWQLNGRLEYCLKDRMNFDIPEEIKQLQQFQKEDAALTIYEMLQNIFAIFRQDSSSTGWNETIVENLLANVYHQINHLKTVLEEKLEKEDFTRGKLMSSLHLKRYYGRILHYLKAKEYSHCAWTIVRVEILRNFYFINRLTGYLRN
As to B1, the IRF-1 protein levels result is reported as “dramatic increase” and the IRF-2 protein levels entry is “not IRF-2”.
